In assay [1] the target is T1, wild type DnaC (E. coli, UniProt P0AEF0 1-245).
T1 sequence (looked up): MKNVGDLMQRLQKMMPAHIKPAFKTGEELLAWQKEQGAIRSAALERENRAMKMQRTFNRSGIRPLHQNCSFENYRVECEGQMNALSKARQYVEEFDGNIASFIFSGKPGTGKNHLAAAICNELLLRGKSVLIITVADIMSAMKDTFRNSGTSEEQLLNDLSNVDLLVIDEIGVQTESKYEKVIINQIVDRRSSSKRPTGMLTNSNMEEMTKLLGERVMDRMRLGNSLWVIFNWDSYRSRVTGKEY
The assay can be described thus: SPR.

The target in assay [2] is T1, wild type DnaC. The assay can be described thus: SEC. (In general: In gel filtration, larger molecules generally elute earlier.)

B1: DnaB helicase (enzyme, E. coli, UniProt P0ACB0 1-471, looked up)
chain: MAGNKPFNKQQAEPRERDPQVAGLKVPPHSIEAEQSVLGGLMLDNERWDDVAERVVADDFYTRPHRHIFTEMARLQESGSPIDLITLAESLERQGQLDSVGGFAYLAELSKNTPSAANISAYADIVRERAVVREMISVANEIAEAGFDPQGRTSEDLLDLAESRVFKIAESRANKDEGPKNIADVLDATVARIEQLFQQPHDGVTGVNTGYDDLNKKTAGLQPSDLIIVAARPSMGKTTFAMNLVENAAMLQDKPVLIFSLEMPSEQIMMRSLASLSRVDQTKIRTGQLDDEDWARISGTMGILLEKRNIYIDDSSGLTPTEVRSRARRIAREHGGIGLIMIDYLQLMRVPALSDNRTLEIAEISRSLKALAKELNVPVVALSQLNRSLEQRADKRPVNSDLRESGSIEQDADLIMFIYRDEVYHENSDLKGIAEIIIGKQRNGPIGTVRLTFNGQWSRFDNYAGPQYDDE
For the molecule B1, the “fold increase of affinity with 150 μM ATP against no ATP” value with wild type DnaC [1] is ~2 fold. In addition, in the assay with wild type DnaC [2], the “DnaC monomers per oriC plasmid in the isolated prepriming complex (5 mM ATP)” value is ~6 monomers per oriC plasmid and the “stoichiometry N” value is 3 DnaC monomers per DnaB hexamer.
